{
  "source": "patent US20110118274A1",
  "about": "“PROTEASOME INHIBITORS AND THEIR USE IN TREATING PATHOGEN INFECTION AND CANCER” (CORNELL RESEARCH FOUNDATION, INC., priority 2007, published 2011)",
  "key": {"[1]": {"molecular_target": "human 20S-β5 (Hu20S PA28) (Homo sapiens, UniProt P28074)", "assay": "Kinetics of inhibition of human 20S proteasome β5 site in presence of PA28", "settings": "for kobs/[I] H20S-β5: corrected for substrate competition; for reversibility of inactivation of human proteasome β5 subunit: plots of kobs vs [I] not passing through origin", "description": "The “open gate” mutant of recombinant Mtb proteasome (PrcAB-OG) was over-expressed in E. coli and purified as reported (Lin et al., “Mycobacterium tuberculosis prcBA Genes Encode a Gated Proteasome With Broad Oligopeptide Specificity,” Mol. Microbiol. 59:1405-1416 (2006), which is hereby incorporated by reference in its entirety). Human red blood cell 20S and PA28 were purchased from Boston Biochem (Cambridge, Mass.). GL1, GL2, GL3, GL4 were purchased from TimTec LLC (DE, USA) and GL5, GL6, GL7 from ChemDiv, Inc. (CA, USA). Bortezomib was purchased from LC Laboratories (MA, USA). Substrates Ac-RFW-AMC, Ac-YQW-AMC were synthesized by AnaSpec (CA, USA) and used for detailed kinetic analyses. Different substrates were chosen according to the nature of the experiments.\nKinetic measurements were made on a Hitachi F-2500 fluorescence spectrophotometer with 0.238 nM PrcAB-OG in 20 mM HEPES, 0.5 mM EDTA, pH 7.5, 0.1 mg/mL BSA and 25 μM Ac-RFWAMC for Mtb PrcAB-OG or 25 μM Suc-LLVY-AMC for human 20S at 37° C. After steady state conditions were achieved, inhibitors were added and substrate cleavage was monitored (λex=360 nm, λex=460 nm) at 5-second intervals for 60 minutes or until no activity remained. The data were fitted to equation (Corbett et al., “The Growing Burden of Tuberculosis: Global Trends and Interactions with the HIV Epidemic,” Arch. Intern. Med. 163:1009-1021 (2003), which is hereby incorporated by reference in its entirety) to determine kobs ? using Prism (GraphPad Software, Inc. San Diego, Calif.).\nAs noted, the cytotoxicity of proteasome inhibitors is correlated with their inhibition of the proteasome's chymotryptic-like activity (Adams et al., “Proteasome Inhibitors: A Novel Class of Potent and Effective Antitumor Agents,” Cancer Res. 59:2615-2622 (1999), which is hereby incorporated by reference in its entirety). Accordingly, the next focus was placed on the chymotryptic-like site of the β5 subunit of proteasomes isolated from human erythrocytes in the presence of the human proteasome activator PA28 and obtained the kobs ? /[1] values for GL5 (tested over the range 50-100 μM, FIG. 2C), GL1 (2.5-20 μM), and GL3 (2.5-10 μM). The plots of kobs ? vs [I] for all three compounds yielded straight lines, indicating a simple one-step inactivation mechanism (Copeland, R.A., “Enzymes: A Practical Introduction to Structure, Mechanism, and Data Analysis,” pp. 305-349 (2000), which is hereby incorporated by reference in its entirety)."}, "[2]": {"tested_on": "human monocyte-derived macrophages", "assay": "Cytotoxicity, human monocyte-derived macrophages", "settings": "100 μM, 7 days", "protocol": "Given that proteasome-inhibiting oxathiazol-2ones killed mycobacteria, their impact on the survival of mammalian cells was tested. […] In contrast, less than 10% of Vero cells remained viable after 4-day exposure to 25 nM bortezomib. Finally, because most Mtb in nature resides in human macrophages, we exposed human monocyte-derived macrophages (mostly multinucleated giant cells) to 100 μM GL3, GL5 or GL6 for 7 days. There was no morphologic sign of cytotoxicity. Again, in contrast, some of the human macrophages exposed to as little as 0.5 μM bortezomib for 7 days rounded up or appeared to disintegrate."}},
  "data": [
    {"compound": "O=c1oc(-c2cc3c(s2)CCCC3)ns1", "values": [
      {"measurement": "kobs/[I] H20S-β5", "setting": "[1]", "value": "128 ± 12.3", "unit": "M⁻¹ s⁻¹"},
      {"measurement": "reversibility of inactivation of human proteasome β5 subunit", "setting": "[1]", "value": "reversible"},
      {"measurement": "morphologic sign of cytotoxicity", "setting": "[2]", "value": "no morphologic sign of cytotoxicity"}
    ]},
    {"compound": "O=c1oc(-c2cc3ccccc3s2)ns1", "values": [
      {"measurement": "kobs/[I] H20S-β5", "setting": "[1]", "value": "194 ± 5.5", "unit": "M⁻¹ s⁻¹"},
      {"measurement": "reversibility of inactivation of human proteasome β5 subunit", "setting": "[1]", "value": "reversible"}
    ]}
  ]
}
